According to patent publication US5997871A (priority 1996, dated 1999):
Entries after “also recorded” stand apart in the source; their conditions may differ. Like-named read-outs stand apart in the source and are kept apart here.

Experiments:
KS Y-1 induced tumors = test: KS Y-1 tumors induced in immunodeficient mice; conditions: 100 IU subcutaneously daily for 7 days, findings comparable to the active peptides
[1] = Tolerability and toxicity of hCG therapy in patients
Kaposi's sarcoma = Kaposi's sarcoma response in patients treated with hCG preparations; type: in vivo, human; conditions: for effect on visceral (lung and gastrointestinal) KS: very advanced disease, systemic therapy, within 1 to 3 months of initiating therapy; for response of recurrent cutaneous KS to higher dose hCG: KS relapse, week 79
KS tumors and cells = test: Overall anti-KS activity of hCG preparations and peptides in vitro and in vivo; conditions: identical amounts in International Units
KS lesions = conditions: cited from earlier work; for effect of intralesional hCG on KS lesions: intralesional injections, 250 to 2000 IU three times per week (Gill et al., 1996; Hermans et al., 1995)
KS Y-1 or KS-SLK cells = test: KS clonogenic assay in methylcellulose; type: cell-based, human
Experimental: Briefly, the KS Y-1 cells were obtained from mononuclear cells isolated from pleural effusion of an AIDS patient with KS involving the lungs. After the depletion of T lymphocytes, monocytes/macrophages and fibroblasts by the cytotoxicity method, using monoclonal antibodies against CD2, CD3, CD4, CD8, CD10 and CD14 membrane antigens and baby rabbit complement, the cells were cultured in the absence of exogenous growth factors to select for transformed cells.

KS tumor = test: Apoptosis in situ immunostaining of KS tumor biopsies from AIDS-KS patients; type: in vivo, human
From the text: In control KS tumors treated with diluent only or untreated KS tumor tissues (not shown), there was little evidence of cell death (FIG. 2F).

[2] = intralesional 250 IU three times per week (Gill et al., 1996)
[3] = intralesional 2,000 IU three times per week (Gill et al., 1996)
[4] = patient PO-DU, KS-VC, 12,500 IU/week, Rx 37+ weeks

Substance: APL: commercial crude hCG preparation from Wyeth-Ayerst Laboratories
- cell death in KS Y-1 tumors (hematoxylin and eosin thin sections) (KS Y-1 induced tumors): extensive cell death
- reason for discontinuation of hCG therapy ([1]; patient PH-OJ, on higher doses of hCG (APL), required hospitalization): exacerbation of preexisting cholestasis
- KS response (Kaposi's sarcoma; patient PG-1, KS-C, 35,000 IU/week, Rx 16+ weeks): PD (PD indicates progressive disease)
- KS response (Kaposi's sarcoma; patient PG-4, KS-C, 35,000 IU/week, Rx 16+ weeks): Stable
- KS response (Kaposi's sarcoma; patient PG-6, KS-C, 35,000 IU/week, Rx 12+ weeks): Stable
- KS response (Kaposi's sarcoma; patient PG-7, KS-C, 30,000 IU/week, Rx 10+ weeks): PR (PR = Partial response)
- KS response (Kaposi's sarcoma; patient PG-8, KS-C, 30,000 IU/week, Rx 12 weeks): PD (PD indicates progressive disease)
- KS response (Kaposi's sarcoma; patient PG-9, KS-C, 30,000 IU/week, Rx 11+ weeks): Stable
- KS response (Kaposi's sarcoma; patient PG-10, KS-C, 30,000 IU/week, Rx 12 weeks): Stable
- KS response (Kaposi's sarcoma; patient PG-11, KS-C, 30,000 IU/week, Rx 4.5 weeks): Stable
- KS response (Kaposi's sarcoma; patient PG-12, KS-C, 30,000 IU/week, Rx 19+ weeks): PR (PR = Partial response)
- KS response (Kaposi's sarcoma; patient PG-15, KS-C, 70,000 IU/week, Rx 8 weeks): PD (PD indicates progressive disease)
- effect on visceral (lung and gastrointestinal) KS (Kaposi's sarcoma): striking clearance
- relative effectiveness among commercial hCG preparations (KS tumors and cells): usually more active
- relative effectiveness among commercial hCG preparations (KS tumors and cells; listed as hCG from APL (Wyeth-Ayerst)): next most effective
- KS lesion response rate (KS lesions; [2]): 8%
- KS lesion response rate (KS lesions; [3]): 83%
- effect of intralesional hCG on KS lesions (KS lesions): partial or complete regression of KS lesions

Substance: CR127: highly purified hCG preparation (heterodimer)
- anti-KS activity in clonogenic assays (KS Y-1 or KS-SLK cells; 2 nmoles/ml, 2 KS neoplastic cell lines): inactive

Substance: PA: codes P and A together: patient received both Pregnyl and APL hCG preparations
- KS response (Kaposi's sarcoma; patient PH-SPBE, KS-C, 25,000 IU/week, Rx 29+ weeks): PR (PR = Partial response)

Substance: Pregnyl: commercial hCG preparation from Organon, Inc.
- KS response (Kaposi's sarcoma; patient PH-GF, KS-C, 12,500 IU/week, Rx 18+ weeks): PR (PR = Partial response)
- KS response (Kaposi's sarcoma; patient PH-GRX, KS-C, 12,500 IU/week, Rx 17+ weeks): PR (PR = Partial response)
- KS response (Kaposi's sarcoma; patient PH-LE, KS-VC, 30,000 IU/week, Rx 12+ weeks): Stable
- KS response (Kaposi's sarcoma; patient PH-OJ, KS-C, 12,500 IU/week, Rx 31+ weeks): PR (PR = Partial response)
- KS response (Kaposi's sarcoma; patient PH-RF, KS-V, 15,000 IU/week, Rx 12+ weeks): PR (PR = Partial response)
- KS response (Kaposi's sarcoma; patient PH-SP, KS-VC, 30,000 IU/week, Rx 8+ weeks): PD (PD indicates progressive disease)
- response of recurrent cutaneous KS to higher dose hCG (Kaposi's sarcoma; patient PH-VE, 30,000 IU/week): regression of recurrent cutaneous KS
- KS response (Kaposi's sarcoma; patient PH-VE, KS-C, 12,500 IU/week, Rx 80+ weeks): PR (PR = Partial response)
- KS response (Kaposi's sarcoma; patient PO-BO, KS-C, 12,500 IU/week, Rx 6+ weeks): PD (Died)
- KS response (Kaposi's sarcoma; patient PO-CJP, KS-C, 12,500 IU/week, Rx 6+ weeks): PD (PD indicates progressive disease)
- KS response (Kaposi's sarcoma; [4]): Stable
- KS response (Kaposi's sarcoma; patient PO-FY, KS-C, 12,500 IU/week, Rx 6+ weeks): PD (PD indicates progressive disease)
- KS response (Kaposi's sarcoma; patient PO-LC, KS-VC, 12,500 IU/week, Rx 12+ weeks): PD (PD indicates progressive disease)
- KS response (Kaposi's sarcoma; patient PO-RB, KS-VC, 12,500 IU/week, Rx 4+ weeks): PD (Died)
- effect on visceral (lung and gastrointestinal) KS (Kaposi's sarcoma): striking clearance
- relative effectiveness among commercial hCG preparations (KS tumors and cells): next most effective

Substance: hCG from Fujisawa: non-recombinant commercial hCG preparation from Fujisawa
- relative effectiveness among commercial hCG preparations (KS tumors and cells): most effective

Substance: human chorionic gonadotropin [hCG]
- toxicity in treated patients ([1]; hCG-treated patients of Table 2): lack of significant toxicity
- tolerability ([1]; human patients, doses up to 45,000 I.U. per week): well tolerated
- decline of alkaline phosphatase and bilirubin values ([1]; patient PH-OJ, following discontinuation of hCG): 2 fold
- liver findings when hCG was restarted ([1]; patient PH-OJ, preexisting cholestasis exacerbated, required hospitalization): marked increase in alkaline phosphatase and rise in bilirubin
- adverse event leading to discontinuation ([1]; two patients, PH-DD (on concomitant anti-mycobacterial therapy) and PH-OJ (preexisting cholestasis)): discontinued hCG treatment because of cholestasis
- regression of visceral KS (Kaposi's sarcoma; 4 patients (PO-DU, PO-GE, PH-JPV, PH-RF), systemic hCG 15,000 to 30,000 IU): ≥ 75%
- macroscopic appearance of KS lesions (Kaposi's sarcoma; AIDS-KS patients, intralesional or systemic injection): macroscopic regression and flattening of KS lesions
- patients showing marked responses (Kaposi's sarcoma; Belgium patients with advanced disease, some visceral KS, systemic hCG 15,000 to 30,000 IU): 6
- patients who have not responded (Kaposi's sarcoma; Belgium patients with advanced disease, systemic hCG 15,000 to 30,000 IU, including 1 who died from opportunistic infection): Four
- anti-KS effect of systemic hCG therapy (Kaposi's sarcoma; PG patients (California trial) followed for more than 4 months): substantial anti-KS effect in 4 of the patients
- KS response (Kaposi's sarcoma; patient PH-GA, KS-C, 15,000 IU/week, Rx 12+ weeks (text: recorded at week 14)): complete regression
- KS disease status (Kaposi's sarcoma; patient PH-GA, week 6): stabilization of disease
- pulmonary function (Kaposi's sarcoma; patient PH-JPV with pulmonary and gastric KS, after one month of hCG alone): dramatically improved their pulmonary function test
- decline of pulmonary KS (Kaposi's sarcoma; patient PH-RF with gastric KS, on hCG, subsequent stabilization): 75%
- response of recurrent cutaneous KS to higher dose hCG (Kaposi's sarcoma; patient PH-VE, 30,000 IU/week): responded; also recorded: KS lesion regression was observed
- status of KS lesions (Kaposi's sarcoma; patient PH-VE, intralesional therapy began at week 0, week 3): regression of KS lesions was observed
- status of KS lesions (Kaposi's sarcoma; patient PH-VE, week 68 of hCG therapy): KS lesions recurred
- KS response (Kaposi's sarcoma; [4]): stabilization of pulmonary disease
- KS response (Kaposi's sarcoma; patient PO-GE, KS-VC, 15,000 IU/week, Rx 48+ weeks): complete response
- KS response (Kaposi's sarcoma; patients PG2 and PG5, on systemic hCG): exhibited a KS response
- KS response (Kaposi's sarcoma; patients PH-JJ, PH-MH, PH-LG, PH-JPV, PG-16, PG-18): partial responses
- KS response (Kaposi's sarcoma; patients PO-SC and PH-LFA): did not respond to hCG or their disease progressed on therapy
- patients who exhibited regression of KS disease (Kaposi's sarcoma; systemic protocol 35,000 IU/week, at least 4 months of follow-up): 4 of 5
- apoptosis in KS tumor thin tissue section (KS tumor; AIDS-KS patient, intralesional 2000 IU, 3 times weekly for 2-3 weeks): evidence of apoptosis in all cells
- apoptosis in situ immunostaining / histology of tumor biopsies (KS tumor; AIDS-KS patients, after 2-3 weeks of hCG therapy): evidence of apoptosis and/or, histologically, complete absence of the KS tumor
- KS tumor regression (KS lesions; 100,000 IU three times per week intramuscularly (Harris, 1995)): not
- KS tumor regression (KS lesions; 150,000 IU to 700,000 IU three times per week intramuscularly, certain KS patients (Harris, 1995)): lead to KS tumor regression
- KS lesion response rate (KS lesions; [2]): 16%
- KS lesion response rate (KS lesions; [3]): 83%
- effect of intralesional hCG on KS lesions (KS lesions): resulted in remissions of KS lesions; also recorded: cutaneous KS lesions were reduced
- effect of systemic hCG on advanced/visceral KS (KS lesions; systemic injection (Hermans et al., 1995)): regression of far advanced pulmonary KS in two patients; also recorded: induced regression of advanced KS disease; also recorded: regression of visceral lesions occurred in 2 KS patients

Substance: pure α-chain: pure α-chain of hCG
- anti-KS effect in clonogenic assays (KS Y-1 or KS-SLK cells; pure subunit chains): no anti-KS effect
